Experimental data published in ChEMBL document CHEMBL1156915, “Synthesis of new thienyl ring containing HIV-1 protease inhibitors: promising preliminary pharmacological evaluation against recombinant HIV-1 proteases” (J Med Chem, 2010).

Target: Protease (Human immunodeficiency virus 1, UniProt Q9YQ12)
Experiment: Inhibition of recombinant wild type HIV1 protease assessed as hydrolysis of fluorogenic substrate

- IC50: 0.4 nM
SMILES: CC(C)(C)NC(=O)[C@@H]1C[C@@H]2CCCC[C@@H]2CN1C[C@@H](O)[C@H](Cc1ccccc1)NC(=O)[C@H](CC(N)=O)NC(=O)c1ccc2ccccc2n1 [SAQUINAVIR]
